Test [1] concerns the target MMP-2 (Homo sapiens, UniProt P08253). As to the kind of experiment: Assay for inhibitory activity against MMP-2. To be noted: read-out: IC50 (MMP-2). As for the experimental part:
(§1) Assay for Inhibitory Activities of MMP-9 and MMP-2
(§2) The enzymatic activity was analyzed on the method described by Knight, C. G., et al. (C. Graham Knight., Frances Willenbrock and Gillian Murphy: A novel coumarin-labelled peptide for sensitive continuous assays of the matrix metalloproteinases. FEBS Lett., 296 (1992) 263-266).
MMP-2 was purchased from Yagai (Yamagata pref., Japan).
MOCAc-Pro-Leu-Gly-Leu-A2pr(Dnp)-Ala-Arg-NH2 as a substrate was purchased from Petide Institute(Osaka pref., Japan). This substrate was dissolved in DMSO at a concentration of 1 mM.
Reaction buffer consists of 50 mM Tris-HCl buffer (pH 7.5) containing 10 mM CaCl2, 0.3 M NaCl, 0.005% Brij35 and 0.01% NaN3.
Assay Method of Inhibitory Activity Against MMP-2:
1.0 μl of a tested compound in DMSO is added to 48.0 μl of a reaction buffer containing 0.05 μl of an enzyme solution. After standing for 60 minutes at room temperature, the reaction was started by adding 1.0 μl of a substrate solution. After incubation for 60 minutes at room temperature, 100 μl of 3% (v/v) AcOH for reaction stopping and measured a fluorescence with excitation and emission at 320 nm and 405 nm, respectively (Spectrophotofluorometer; Fluoroscan Ascent (Labsystem)). […]
(§3) IC50 values were calculated by using a following formula and each fluorescence values of above four methods (A to D). […]

Sequences of proteins named here, by UniProt entry; tags and fusion partners are left off. Residues count along the entry.
UniProt P08253, 110-660 limits assumed: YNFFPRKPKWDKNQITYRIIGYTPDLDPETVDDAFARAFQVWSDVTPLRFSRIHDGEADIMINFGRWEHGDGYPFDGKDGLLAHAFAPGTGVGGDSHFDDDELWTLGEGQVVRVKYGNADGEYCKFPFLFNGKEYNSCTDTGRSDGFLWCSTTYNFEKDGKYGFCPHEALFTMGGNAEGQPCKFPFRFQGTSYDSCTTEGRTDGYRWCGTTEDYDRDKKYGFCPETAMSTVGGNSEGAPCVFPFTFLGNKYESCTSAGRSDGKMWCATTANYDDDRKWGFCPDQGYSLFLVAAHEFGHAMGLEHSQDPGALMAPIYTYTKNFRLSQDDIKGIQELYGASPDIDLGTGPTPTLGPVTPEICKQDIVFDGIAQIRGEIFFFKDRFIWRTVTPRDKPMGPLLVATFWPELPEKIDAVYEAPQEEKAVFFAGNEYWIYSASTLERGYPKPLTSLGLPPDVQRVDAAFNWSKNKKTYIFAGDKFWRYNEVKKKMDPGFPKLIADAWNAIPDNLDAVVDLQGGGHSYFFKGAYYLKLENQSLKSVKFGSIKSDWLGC
UniProt P14780, 107-707 limits assumed: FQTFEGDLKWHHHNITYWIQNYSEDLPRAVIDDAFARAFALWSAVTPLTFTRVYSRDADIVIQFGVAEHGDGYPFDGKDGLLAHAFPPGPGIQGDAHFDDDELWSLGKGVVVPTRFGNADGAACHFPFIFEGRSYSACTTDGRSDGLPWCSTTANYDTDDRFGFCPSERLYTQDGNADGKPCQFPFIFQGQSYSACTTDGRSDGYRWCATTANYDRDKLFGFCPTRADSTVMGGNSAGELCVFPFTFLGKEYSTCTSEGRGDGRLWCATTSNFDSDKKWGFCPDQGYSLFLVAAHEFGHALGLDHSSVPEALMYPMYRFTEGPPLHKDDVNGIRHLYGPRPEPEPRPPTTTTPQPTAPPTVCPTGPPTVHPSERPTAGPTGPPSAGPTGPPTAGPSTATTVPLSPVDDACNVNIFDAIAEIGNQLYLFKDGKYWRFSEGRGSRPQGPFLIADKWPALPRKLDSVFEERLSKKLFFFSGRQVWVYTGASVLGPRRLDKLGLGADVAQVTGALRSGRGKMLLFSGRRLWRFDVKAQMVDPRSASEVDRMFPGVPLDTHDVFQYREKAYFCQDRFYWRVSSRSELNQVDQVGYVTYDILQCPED

The target in test [2] is MMP-9 (Homo sapiens, UniProt P14780). As to the kind of experiment: Assay for inhibitory activity against MMP-9. To be noted: read-out: IC50 (MMP-9). The procedure:
as §1, §2
MMP-9 was purified by using a combination of procedures described in previous reports as follows. Yasunori Okada, Yukio Gonoji, Katsumi Naka, Katsuro Tomita, Isao Nakanishi, Kazushi Iwata and Taro Hayakawa: Matrix metalloproteinase 9 (92-kDa gelatinase/type IV collagenase) from HT1080 human fibrosarcoma cells. Purification and activation of the precursor and enzymic properties. J. Biol. Chem., 267 (1992) 21712-21719. […]
1.0 μl of a tested compound in DMSO is added to 48.0 μl of a reaction buffer containing 0.08 μl of an enzyme solution. […] After incubation for 60 minutes at room temperature, 100 μl of 3% (v/v) AcOH for reaction stopping and measured a fluorescence with excitation and emission at 320 nm and 405 nm, respectively (Spectrophotofluorometer; Fluoroscan Ascent (Labsystem)). […]
as §3

As to `CCc1ccc(-c2nnn(-c3ccc(S(=O)(=O)NCC(=O)O)cc3)n2)cc1`, the IC50 – broadly, the concentration that inhibits the measured activity by half – came out at 12.2 nM in test [1] and 94 nM in test [2].

These data come from patent publication US6423729B1, “Therapeutic or prophylactic agent for glomerulopathy” (Shionogi & Co., Ltd., priority 1997, dated 2002).
